Data from patent publication US10227617B2, “Sequestration of carbon dioxide with hydrogen to useful products” (UNIVERSITY OF GEORGIA RESEARCH FOUNDATION, INC., priority 2012, dated 2019).

Target: T1, Metallosphaera sedula acyl-CoA synthetase (4-hydroxybutyrate:CoA ligase) Msed_0394, SEQ ID NO:13, recombinant (Metallosphaera sedula, UniProt A4YDR9)
T1 sequence (A4YDR9 1-549): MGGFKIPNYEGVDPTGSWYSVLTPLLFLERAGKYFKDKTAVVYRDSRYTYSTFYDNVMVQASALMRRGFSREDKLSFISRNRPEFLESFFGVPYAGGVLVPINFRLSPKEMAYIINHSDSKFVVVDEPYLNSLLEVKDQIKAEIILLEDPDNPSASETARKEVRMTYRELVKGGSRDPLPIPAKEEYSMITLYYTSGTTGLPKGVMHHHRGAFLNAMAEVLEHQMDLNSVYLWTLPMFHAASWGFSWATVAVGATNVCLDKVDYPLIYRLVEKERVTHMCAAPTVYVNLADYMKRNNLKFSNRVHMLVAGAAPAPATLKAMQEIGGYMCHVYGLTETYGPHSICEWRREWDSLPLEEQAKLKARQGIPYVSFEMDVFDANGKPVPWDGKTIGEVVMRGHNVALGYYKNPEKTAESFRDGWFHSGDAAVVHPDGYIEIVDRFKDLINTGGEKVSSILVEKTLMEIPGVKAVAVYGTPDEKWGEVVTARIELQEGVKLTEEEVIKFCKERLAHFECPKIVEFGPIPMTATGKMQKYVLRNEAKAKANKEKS
Assay: 4-hydroxybutyrate-CoA synthetase (acyl-CoA ligase) activity of recombinant Msed_0394, discontinuous DTNB assay
Type: biochemical
Settings: Msed_0394, 75° C., pH 7.9

Vmax: 0.13 µmol/min/mg | kcat: 0.14 s⁻¹
Structure (SMILES): CC(=O)O [Acetate]
